# scFv variants of Ab-14 (heavy chain) against a SARS-CoV-2 spike peptide

The measurements come from Li et al. 2023 (doi:10.1038/s41467-023-39022-2) through the FLAb antibody collection.

Target: peptide PDVDLGDISGINAS, taken from heptad repeat 2 (HR2) of SARS-CoV-2 spike.

Each scFv is VH, three GGGGS repeats, VL, as in the parent Ab-14, and differs from it in the CDRs of the heavy chain only.
VH: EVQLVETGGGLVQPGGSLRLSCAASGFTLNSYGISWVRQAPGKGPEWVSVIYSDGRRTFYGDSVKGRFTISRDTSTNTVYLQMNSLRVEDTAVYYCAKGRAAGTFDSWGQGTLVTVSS
VL: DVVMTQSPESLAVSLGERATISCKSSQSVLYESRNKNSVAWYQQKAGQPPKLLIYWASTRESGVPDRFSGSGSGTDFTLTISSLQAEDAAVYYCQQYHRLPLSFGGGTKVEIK

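These sequences belong to a second round, designed from the earlier measurements on random variants of the parent. Their group label is 14H_GPLM_HC (GPLM: also part of the Gaussian process libraries; HC: hill climbing; a sequence that several methods proposed may carry one label only). In AlphaSeq, yeast of one mating type display the scFv and yeast of the other type display the target. Binding brings cells together so that they mate, and sequencing counts the barcode pairs among the diploids. Each replicate has its own calibration line, from reference interactions of the BCL2 family. Each pool was mated in six replicate cultures.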

Changes read parent residue, position, new residue, counted from the first residue of the VH shown. The read-out is the apparent dissociation constant on a log10 scale (nM): the lower, the stronger. Averages over replicates are reported, and they cover detected replicates only. An entry "ND" has no value in the source: the pair was not observed among the diploids in that replicate. This suggests poor binding but is not conclusive. Of ten entries with the parent sequence, four were seen in most replicates (averages 0.34 to 2.37), three in one and three in none, so single entries are noisy.

changes,"replicates, log10 nM","mean, log10 nM",empty controls
T28D+R100E+T104S,ND ND ND ND ND -0.63,-0.63,0 of 18
T28S+S31E+G103V+S107D,ND ND ND ND ND ND,ND,0 of 18
S31D+F59A+G61Q,0.23 0.13 0.62 -0.15 0.02 -0.03,0.14,0 of 18
S31D+R56K+G61I+A101T,1.51 2.65 ND 1.60 ND 3.03,2.20,0 of 18
S31D+G61S+S107K,-0.07 0.03 -0.33 -0.27 -0.33 0.13,-0.14,0 of 18
F27R+S31D+F59Q+G61I,ND ND ND ND ND ND,ND,1 of 18 (2.28)
S31Q+G61A+T104K,ND 1.48 1.23 ND 1.40 ND,1.37,0 of 18
S31E+G61S+S107T,0.09 -0.37 -0.03 -0.45 -0.18 -0.05,-0.17,0 of 18
N30D+D106S+S107D,ND ND 1.40 ND 1.84 ND,1.62,2 of 18 (2.45)
S31D+G61T+D106E,1.18 ND 2.56 ND 1.72 2.31,1.94,0 of 18
S31E+G103V+S107M,ND ND ND ND ND ND,ND,0 of 18
T28S+S31E+G61T,0.34 0.21 0.01 -0.09 0.01 0.28,0.13,0 of 18
S31E+G61A+A102G,1.07 1.01 0.09 0.80 -0.08 -0.20,0.45,0 of 18
T28D+A101Q+D106N,ND 2.18 1.65 2.75 1.79 0.99,1.87,0 of 18
S31D+A101M+D106W,ND ND ND ND ND ND,ND,0 of 18
N30D+S31Q+G61S+A101T,-0.09 -0.20 -0.41 -0.43 -0.29 -0.19,-0.27,0 of 18
T28D+T104H+D106T,0.71 0.21 0.49 0.03 0.19 0.04,0.28,1 of 18 (2.87)
F59Q+G61S,ND ND ND ND ND ND,ND,0 of 18
T28Q+S31D+F59Q+G61I,0.01 0.92 0.40 1.61 1.89 1.66,1.08,1 of 18 (2.38)
S31E+G61T+S107K,0.69 1.09 0.62 0.52 0.61 0.21,0.62,0 of 18
T28S+S31Q+R56M+G61S,0.40 -0.12 0.21 -0.54 -0.15 -0.04,-0.04,0 of 18
S31Q+F59S+G61S,0.10 0.29 0.24 0.16 0.03 0.23,0.17,0 of 18
T28D+G61H+T104I,-0.07 0.37 -0.02 0.18 0.79 0.59,0.30,1 of 18 (2.07)
S31E+R56M+G61T+A101F,0.90 0.76 0.66 0.27 0.72 1.02,0.72,2 of 18 (2.23)
S31E+G61M+A101W,ND 0.76 ND ND 0.85 1.71,1.11,0 of 18
S31E+G103V+D106A+S107Q,ND ND ND ND 1.47 ND,1.47,0 of 18
T28D+T104I+D106N,1.88 1.90 1.91 1.75 ND 2.18,1.92,0 of 18
S31E+G103V+D106I,ND ND ND ND ND ND,ND,0 of 18
S31R+R100Q+A101L,ND ND ND ND ND ND,ND,0 of 18
S31E+G61T+A101C,ND ND 1.53 ND 1.48 ND,1.50,0 of 18
S31D+F59Q+G61I+R100N,0.70 1.23 0.84 0.79 1.59 1.47,1.10,0 of 18
T28R+S31Q+G61A,ND ND ND ND ND ND,ND,0 of 18

The 2 strongest on average among those seen in every replicate, once more:

changes	replicates, log10 nM	mean, log10 nM	empty controls
N30D+S31Q+G61S+A101T	-0.09 -0.20 -0.41 -0.43 -0.29 -0.19	-0.27	0 of 18
S31E+G61S+S107T	0.09 -0.37 -0.03 -0.45 -0.18 -0.05	-0.17	0 of 18

Values of this round are not directly comparable with the first-round values of the same sequences. In the paper, a design with two or fewer of six values counts as a poor binder. As a blank, each scFv also met three strains without target: over all heavy chain designs, 1% of these pairings were detected, typically at 2.08 and seldom below 0.84. For each scFv, signals with the empty controls are counted beside the result, with their mean in brackets.